{"sequences": {"note": "Sequences of proteins named here, by UniProt entry; tags and fusion partners are left off. A change or cut given only in a name is not applied to a line headed by its entry.", "UniProt O43603": "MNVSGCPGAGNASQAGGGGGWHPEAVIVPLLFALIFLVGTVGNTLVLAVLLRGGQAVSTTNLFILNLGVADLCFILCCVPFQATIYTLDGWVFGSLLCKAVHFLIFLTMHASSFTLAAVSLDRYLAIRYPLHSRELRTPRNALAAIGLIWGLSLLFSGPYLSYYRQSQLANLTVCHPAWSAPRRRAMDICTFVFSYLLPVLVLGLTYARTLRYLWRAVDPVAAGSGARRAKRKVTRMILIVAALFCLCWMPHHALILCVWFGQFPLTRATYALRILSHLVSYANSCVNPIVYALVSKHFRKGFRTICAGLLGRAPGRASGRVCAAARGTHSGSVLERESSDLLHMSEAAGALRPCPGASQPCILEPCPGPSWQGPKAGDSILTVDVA"}, "source": "PubChem BioAssay AID828", "about": "(The Scripps Research Institute Molecular Screening Center, 2007)", "note": "Only a part is listed here, and it is no random draw. Activity calls are given as the source filed them. Cut-off read from the data, not from the text of the source: active = inhibition above about 27%; inactive = the rest.", "data": [{"target": "Galanin receptor type 2 (Homo sapiens) (UniProt O43603)", "assay": "GALR2 antagonists in receptor-expressing cells, primary screen (AID 828);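 note: cells stimulated with galanin 1-16 at roughly its EC80; 0% = agonist challenge control and 100% = basal control without agonist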", "conditions": "antagonist mode, at 4 µM, stronger effect = higher value", "values": [{"compound": "O=P1(Nc2nc3ccc(Cl)cc3s2)COc2ccccc2O1", "note": "(stereo not drawn)", "inhibition": "inactive: -6.68%"}, {"compound": "CCC(=O)N1C2C3N(C(=O)CC)C1C1N(C(=O)CC)C(C(N1C(=O)CC)N3C(=O)CC)N2C(=O)CC", "inhibition": "inactive: -1.61%"}, {"compound": "CC(=O)NC(SC(=S)N(CC(C)C)CC(C)C)C(Cl)(Cl)Cl", "note": "(stereo not drawn)", "inhibition": "inactive: -0.5%"}, {"compound": "COC(=O)c1cc2c(s1)N=C(c1ccccc1)N(C)P2(=O)N1CCOCC1", "note": "(stereo not drawn)", "inhibition": "inactive: 9.57%"}, {"compound": "CCOC(=O)NC(Sc1ccccc1)C(Cl)(Cl)Cl", "note": "(stereo not drawn)", "inhibition": "inactive: -6.41%"}, {"compound": "CC(=O)NC(SC(=S)N(C)C)C(Cl)(Cl)Cl", "note": "(stereo not drawn)", "inhibition": "inactive: 18.7%"}, {"compound": "O=C(OC1CN2CCC1CC2)c1cccc(Cl)c1", "note": "(stereo not drawn)", "inhibition": "inactive: -2.09%"}, {"compound": "C(Cc1nn[nH]n1)Cc1nn[nH]n1", "inhibition": "inactive: 0.79%"}, {"compound": "CC(C)C(=O)NC(Sc1ccccc1)C(Cl)(Cl)Cl", "note": "(stereo not drawn)", "inhibition": "inactive: -1.47%"}, {"compound": "O=P(Nc1nccs1)(c1ccccc1)c1ccccc1", "inhibition": "inactive: 5.04%"}, {"compound": "c1nnnn1CCn1cnnn1", "inhibition": "inactive: 10.2%"}, {"compound": "CC1CCN(C(=O)Oc2c(Cl)cc(Cl)c3cccnc23)CC1", "inhibition": "inactive: -6.55%"}, {"compound": "CN(C)C(=O)OCCc1n(C)cc[n+]1C", "inhibition": "inactive: -0.22%"}, {"compound": "CCc1nc2c(n1)c1c(non1O)c1c2no[n+]1[O-]", "inhibition": "active: 35%"}, {"compound": "O=[N+]([O-])c1cccc2n[nH]nc12", "inhibition": "inactive: -1.14%"}, {"compound": "CC(=O)N1C2C3N(C(C)=O)C1C1N(C(C)=O)C(C(N1C(C)=O)N3C(C)=O)N2C(C)=O", "inhibition": "inactive: -5.26%"}, {"compound": "CCOP(=O)(Nc1ccccc1)OCC", "inhibition": "inactive: 4.41%"}, {"compound": "Cc1cc(SC(NC(=O)c2ccc(F)cc2)C(Cl)(Cl)Cl)ncn1", "note": "(stereo not drawn)", "inhibition": "inactive: -10.3%"}, {"compound": "Cc1c2non([O-])c-2c(C)[n+](=O)[n+]1[O-]", "inhibition": "inactive: 4.41%"}, {"compound": "O=C(NC(Sc1ccncn1)C(Cl)(Cl)Cl)c1ccccc1", "note": "(stereo not drawn)", "inhibition": "inactive: 14.6%"}, {"compound": "Oc1ccccc1CNc1ccccn1", "inhibition": "inactive: -2.26%"}, {"compound": "CC(C)CC(=O)NC(Sc1ccc(Cl)cc1)C(Cl)(Cl)Cl", "note": "(stereo not drawn)", "inhibition": "inactive: 3.9%"}, {"compound": "CN1CCCC(OC(=O)C(c2ccccc2)c2ccccc2)C1", "note": "(stereo not drawn)", "inhibition": "inactive: 2.9%"}, {"compound": "Cc1c2c(nc3ccccc13)SC(C(Cl)Cl)C2", "note": "(stereo not drawn)", "inhibition": "inactive: -2.89%"}, {"compound": "O=C(OC1CN2CCC1CC2)C12CC3CC(CC(C3)C1)C2", "note": "(stereo not drawn)", "inhibition": "inactive: -16.9%"}, {"compound": "ClCCSc1nnc(-c2cccnc2)o1", "inhibition": "inactive: 4.36%"}, {"compound": "O=[N+]([O-])c1cc([N+](=O)[O-])c(-c2ccn[nH]2)s1", "inhibition": "inactive: -3.31%"}, {"compound": "CCN(CC)C(=S)SC(NC=O)C(Cl)(Cl)Cl", "note": "(stereo not drawn)", "inhibition": "inactive: -7.88%"}, {"compound": "Cc1ccc2nc3c(c(C)c2c1)CC(C(Cl)Cl)S3", "note": "(stereo not drawn)", "inhibition": "inactive: 7.61%"}, {"compound": "Cc1cc(SC(NC(=O)c2ccccc2)C(Cl)(Cl)Cl)nc(C(C)C)n1", "note": "(stereo not drawn)", "inhibition": "inactive: 5.84%"}, {"compound": "CCC(C)N(CC(C)C)C(=S)SC(NC(C)=O)C(Cl)(Cl)Cl", "note": "(stereo not drawn)", "inhibition": "inactive: -0.08%"}, {"compound": "COP1(=S)c2c(C)nn(CCC#N)c2N=C(c2ccc(F)cc2)N1C", "note": "(stereo not drawn)", "inhibition": "inactive: -0.84%"}, {"compound": "O=C(COc1ccccc1)OC1CN2CCC1CC2", "note": "(stereo not drawn)", "inhibition": "inactive: -14.5%"}, {"compound": "CC1(CBr)Cn2c(nc3ccccc3c2=O)S1", "note": "(stereo not drawn)", "inhibition": "inactive: -7.72%"}, {"compound": "O=P1(Nc2ccccn2)COc2ccccc2OC1", "inhibition": "inactive: 2.87%"}, {"compound": "Clc1n[nH]nc1-c1nn[nH][15n]1", "inhibition": "inactive: -2.9%"}, {"compound": "O=P1(Nc2ncccn2)COc2ccccc2OC1", "inhibition": "inactive: 1.29%"}, {"compound": "O=P1(Nc2ccc(Br)cn2)COc2ccccc2OC1", "inhibition": "inactive: 5.52%"}, {"compound": "Cc1ccc(OCC(=O)OC2CN3CCC2CC3)cc1", "note": "(stereo not drawn)", "inhibition": "inactive: 10.3%"}, {"compound": "Cc1nn(-c2ccccc2)c2c1P(=O)(N1CCOCC1)N(C)C(c1ccccc1)=N2", "note": "(stereo not drawn)", "inhibition": "inactive: -9.72%"}, {"compound": "CCOP1(=S)c2c(C)nn(CCC#N)c2N=C(c2ccc(F)cc2)N1C", "note": "(stereo not drawn)", "inhibition": "inactive: 5.98%"}, {"compound": "O=[N+]([O-])c1ccc2c(c1)nnn2O", "inhibition": "inactive: 2.32%"}, {"compound": "O=P(Nc1nccs1)(c1ccccc1)c1nc2ccccc2s1", "note": "(stereo not drawn)", "inhibition": "active: 34.7%"}, {"compound": "CCOP1(=S)c2c(C)nn(CCC#N)c2N=C(c2ccccc2F)N1C", "note": "(stereo not drawn)", "inhibition": "inactive: 5.35%"}, {"compound": "Cc1ccc(NCCc2c([N+](=O)[O-])cc([N+](=O)[O-])cc2[N+](=O)[O-])cc1", "inhibition": "inactive: -2.48%"}, {"compound": "CCOP(=O)(Nc1cccc2ccccc12)OCC", "inhibition": "inactive: 7.89%"}, {"compound": "COc1cc(C2NCCC3(OCCO3)C2(C)C)cc(OC)c1OC", "note": "(stereo not drawn)", "inhibition": "inactive: 3.14%"}, {"compound": "Cc1cccc(OCC(=O)OC2CN3CCC2CC3)c1", "note": "(stereo not drawn)", "inhibition": "inactive: -19.3%"}]}]}
